Patent publication US20250129074A1, “CHIMERIC COMPOUND FOR TARGETED DEGRADATION OF ANDROGEN RECEPTOR PROTEIN, PREPARATION METHOD THEREFOR, AND MEDICAL USE THEREOF” (Jiangsu Hengrui Pharmaceuticals Co., Ltd., priority 2021, published 2025)

By UniProt entry, the sequences of proteins in these tests, tags left out.
UniProt P10275, whole entry T878A: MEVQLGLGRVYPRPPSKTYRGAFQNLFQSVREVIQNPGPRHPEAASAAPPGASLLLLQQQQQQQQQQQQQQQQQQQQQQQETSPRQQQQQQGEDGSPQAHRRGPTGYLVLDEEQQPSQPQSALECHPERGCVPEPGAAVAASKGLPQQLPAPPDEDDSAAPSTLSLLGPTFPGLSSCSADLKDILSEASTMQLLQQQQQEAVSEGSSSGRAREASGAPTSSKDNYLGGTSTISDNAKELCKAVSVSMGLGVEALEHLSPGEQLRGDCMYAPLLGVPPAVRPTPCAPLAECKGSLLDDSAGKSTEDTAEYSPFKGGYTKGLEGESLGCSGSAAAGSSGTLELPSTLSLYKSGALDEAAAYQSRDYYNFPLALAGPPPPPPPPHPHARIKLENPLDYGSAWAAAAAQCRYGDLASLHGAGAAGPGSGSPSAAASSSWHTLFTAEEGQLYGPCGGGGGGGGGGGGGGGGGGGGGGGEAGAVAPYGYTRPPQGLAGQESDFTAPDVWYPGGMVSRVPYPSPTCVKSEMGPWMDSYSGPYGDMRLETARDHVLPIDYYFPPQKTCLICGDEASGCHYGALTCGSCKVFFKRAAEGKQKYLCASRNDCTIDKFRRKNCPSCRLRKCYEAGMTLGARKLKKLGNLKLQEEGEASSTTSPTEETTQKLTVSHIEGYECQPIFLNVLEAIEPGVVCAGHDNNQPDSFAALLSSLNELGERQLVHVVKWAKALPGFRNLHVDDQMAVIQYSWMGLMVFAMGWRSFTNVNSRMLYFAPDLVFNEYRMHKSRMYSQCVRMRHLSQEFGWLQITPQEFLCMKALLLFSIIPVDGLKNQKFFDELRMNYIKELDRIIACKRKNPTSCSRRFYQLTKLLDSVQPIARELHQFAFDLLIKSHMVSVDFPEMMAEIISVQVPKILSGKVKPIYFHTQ

Key:
androgen receptor (AR) = androgen receptor (AR) (Homo sapiens, UniProt P10275, T878A); test: Degradation activity on androgen receptor in LNCaP cells (AR ELISA); assay type: cell-based; conditions: for Max (maximum AR degradation rate): 0.1 nM R1881, 24 hours; for DC50: read-out: LNCaP DC50, 0.1 nM R1881, 24 hours
LNCaP cells = test: Inhibition of LNCaP proliferation (CellTiter-Glo); assay type: cell-based, human; conditions: for Max (maximum proliferation inhibition rate): 0.1 nM R1881, six days; for IC50: read-out: LNCaP IC50, 0.1 nM R1881, six days
[1] = system: LNCap-FGC xenograft tumors; test: Pharmacodynamic testing: LNCap-FGC subcutaneous xenograft in castrated CB17-SCID mice; assay type: in vivo; conditions: i.g.; for Mean tumor volume D 21 / Number of remaining animals/group / TGI D 21: qd/21 d
From the text: To evaluate the inhibition of the growth of castration-resistant prostate cancer LNCap-FGC subcutaneous xenograft tumors in male CB17-SCID mice by compounds of the present disclosure.
• Example 15-1 compound; • Example 11-2 or 11-1 (longer retention time) compound; • ARV-110; and • 20% PEG400+75% (10% TPGS)+5% (1% HPMC K100LV) solution.
Test animals: CB17-SCID male mice, purchased from Beijing Vital River Laboratory Animal Technology Co., Ltd. (certificate No. SCXK(Beijing)2016-0006; animal certification No. 110011220107542683), weighing about 20.54-26.72 g on purchase. Housing conditions: 5 animals/cage, a 12/12-hour light/dark cycle, a constant temperature of 23±1° C. with humidity at 50 to 60%, ad libitum access to food and water.
0.2 mL (10×10^6 cells+Matrigel) of LNCaP FGC cells (Matrigel was added, in a 1:1 ratio by volume) in the logarithmic growth phase was subcutaneously inoculated into the right upper limb of each mouse. When the mean tumor volume reached 77 mm^3, male mice with stable tumor growth were selected and subjected to orchiectomy followed by three days of analgesic care. When the mean tumor volume reached 172 mm^3, grouping and administration were started. The day of grouping was defined as DO, and intragastric administration was started and performed once a day for 21 days. The 21th day after administration was defined as D21 (Table 7). For tumor-bearing mice, the tumor volume was measured with a vernier caliper and the body weight was measured with a balance twice a week, and data were recorded.
All data were plotted and statistically analyzed using Excel and GraphPad Prism 8 software.
The calculation formula for tumor volume (V) was: V=½×a×b^2, where a and b represent length and width, respectively.
Relative tumor proliferation rate T/C(%)=(T-T0)/(C-C0)×100 (%), where T and C represent the tumor volumes of a treatment group and the control group at the end of the experiment; T0 and C0 represent the tumor volumes at the beginning of the experiment.

[2] = Pharmacokinetic evaluation in SD rats; assay type: in vivo; conditions: i.g., 2.0 mg/kg

In the case of `C[C@H]1CC2(CCN(c3ccc(C(=O)N4CCC(CN5CCN(c6cccc(NC7CCC(=O)NC7=O)c6)CC5)CC4)nc3)CC2)CN1c1ccc(C#N)c(Cl)c1` (single isomer, unassigned) [12-1 or 12-2 (shorter retention time)], the “Max (maximum AR degradation rate)” value (androgen receptor (AR)) is reported as 95% and the DC50 (androgen receptor (AR)) is reported as 3.5 nM.

With `C[C@H]1CC2(CCN(c3ccc(C(=O)N4CCC(CN5CCN(c6cccc(NC7CCC(=O)NC7=O)c6)CC5)CC4)cc3)CC2)CN1c1ccc(C#N)c(Cl)c1` (single isomer, unassigned) [11-1 or 11-2 (shorter retention time)] the “Max (maximum AR degradation rate)” value (androgen receptor (AR)) was 96%, the DC50 (androgen receptor (AR)) was 6.6 nM and the “Max (maximum proliferation inhibition rate)” value (LNCaP cells) was 72%. It also gave an IC50 (LNCaP cells) of 119 nM.

For `C[C@H]1CC2(CCN(c3ccc(C(=O)N4CCC(CN5CCN(c6cccc(NC7CCC(=O)NC7=O)c6)CC5)CC4)nc3)CC2)CN1c1ccc(C#N)c(Cl)c1` (single isomer, unassigned) [12-2 or 12-1 (longer retention time)], the “Max (maximum AR degradation rate)” value (androgen receptor (AR)) was 97%.

For `C[C@H]1CC2(CCN(c3ccc(C(=O)N4CCC(CN5CCN(c6cccc(NC7CCC(=O)NC7=O)c6)CC5)CC4)cc3)CC2)CN1c1ccc(C#N)c(Cl)c1` (single isomer, unassigned) [11-2 or 11-1 (longer retention time)], the “Max (maximum AR degradation rate)” value (androgen receptor (AR)) was 97%, the DC50 (androgen receptor (AR)) was 1.6 nM and the “effect on the body weight of the mice” value ([1]; 1.5, 5 and 15 mpk, once daily for 21 days) was “little effect”. The “Mean tumor volume D 21” value ([1]; 1.5 mpk) was 587 mm^3, the “Number of remaining animals/group” value ([1]; 1.5 mpk) was 8/8 and the “TGI D 21” value ([1]; 1.5 mpk) was 71%. For the same compound, the “Mean tumor volume D 21” value ([1]; 5 mpk) was 147 mm^3, the “Number of remaining animals/group” value ([1]; 5 mpk) was 8/8 and the “TGI D 21” value ([1]; 5 mpk) was 102%. For the same compound, the “Mean tumor volume D 21” value ([1]; 15 mpk) was 120 mm^3, the “Number of remaining animals/group” value ([1]; 15 mpk) was 8/8 and the “TGI D 21” value ([1]; 15 mpk) was 104%. The “Area under curve AUC0-t” value [2] was 685 ng·h/mL, the “Clearance rate CL/F” value [2] was 63.7 mL/min/kg and the “Half-life T½” value [2] was 6.26 h. For the same compound, the “Plasma concentration Cmax” value [2] was 77.1 ng/mL, the “Max (maximum proliferation inhibition rate)” value (LNCaP cells) was 72% and the IC50 (LNCaP cells) was 56 nM.
